Experimental findings from publication PMC7689490, “Designed CXCR4 mimic acts as a soluble chemokine receptor that blocks atherogenic inflammation by agonist-specific targeting” (Nature Communications, 2020) are described below.

“And” between values parts separate entries of the source, which are not always exact repeats. Equal values may be shown once.

For the experiment, the target named is Fluos-msR4M-LS (human), P61073. Briefly: other fluorescence titration; 5 nM Fluos-labeled ectodomain peptide titrated with unlabeled MIF, MIF peptide or CXCL12; 10 mM sodium phosphate, pH 7.4, 1% HFIP; emission at 522 nm; apparent KD, 1/1 binding model; one constant for each of three curves. To be noted: remark: other sources report otherwise.

B1: macrophage migration-inhibitory factor (MIF), recombinant human, P14174 1-115 (natural protein)
chain: MPMFIVNTNVPRASVPDGFLSELTQQLAQATGKPPQYIAVHVVPDQLMAFGGSSEPCALCSLHSIGKIGGAQNRSYSKLLCGLLAERLRISPDRVYINYYDMNAANVGWNNSTFA
modifications: here or on the partner: disulfide bridge from Cys-109 to Cys-186 of the ECL2 chain; C-terminal amide; Fluos label on the molecule (chain and position not stated) | disulfide bridge from Cys-186 to Cys-109 of the ECL1 chain; C-terminal amide
As for B1, the Kd is 6.6 nM and 6.8 nM.
